# Binding of CDR-mutated scFvs to a peptide of the spike HR2 region

Target peptide (SARS-CoV-2 spike, HR2 region): PDVDLGDISGINAS

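Phage display of a naive human antibody library on the peptide gave the parent. This is the validation round: designs drawn from the data on random variants, tested in the same kind of assay. Their group label is 14L_Ctrl (Ctrl: baseline library sampled from a position-specific scoring matrix, with some repeated check sequences). The assay is AlphaSeq: two haploid yeast populations carry antibody and antigen on their surface. Pairs that bind mate more often; barcode pairs of the diploids are counted by sequencing. Scores were corrected for input abundance and mapped to Kd with protein pairs of known affinity run in the same pool. Each pool was mated in six replicate cultures.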

Parent: Ab-14, a human scFv built as VH, three GGGGS repeats, VL. Only the CDRs of the light chain vary.
VH: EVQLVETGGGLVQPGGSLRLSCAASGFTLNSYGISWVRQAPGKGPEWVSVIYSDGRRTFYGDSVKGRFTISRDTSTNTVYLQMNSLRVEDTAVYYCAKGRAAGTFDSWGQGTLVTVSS
VL: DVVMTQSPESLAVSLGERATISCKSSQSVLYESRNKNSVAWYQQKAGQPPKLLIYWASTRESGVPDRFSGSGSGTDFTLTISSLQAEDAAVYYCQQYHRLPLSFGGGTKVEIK

Positions count from residue 1 of the parent VL; S25I puts I in place of S.
The read-out is the apparent dissociation constant on a log10 scale (nM): the lower, the stronger.
Where no diploid with the target was found in that replicate, the entry reads "n.d.": below detection, most likely a poor binder, though not proof of it.
The parent sequence was in this pool as ten entries: three were never detected, three once, and four in most replicates, with averages from 0.34 to 2.37.
Nonspecific signal, from three strains lacking the peptide, appeared in 4% of pairings of all light chain designs, centred on 2.64 (5% of these signals below 1.59); values are not corrected for it. The control count says in how many pairings with the empty strains this scFv gave a signal, with their mean in brackets.
A sequence measured in both rounds can read differently, since the two assays cover different ranges.
The authors' rule: three or more of the six replicates give a measured affinity, fewer mean a poor binder.

| # | changes | log10 Kd, replicates | control signals |
|---|---|---|---|
| 1 | S25I+S103F | 0.70 / 0.29 / 0.31 / 0.11 / 0.10 / 0.40 | 2 of 18 (1.73) |
| 2 | S25H+V29C+S62Q | 2.35 / n.d. / n.d. / n.d. / n.d. / n.d. | 0 of 18 |
| 3 | Q27D+S33N | n.d. / n.d. / n.d. / n.d. / n.d. / n.d. | 0 of 18 |
| 4 | K24Q+W56N+S58D+P101L | n.d. / n.d. / n.d. / n.d. / n.d. / n.d. | 0 of 18 |
| 5 | K24Q+S25F+V29D+L30P+Y31D+W56Y+H98C | 0.74 / 0.21 / 0.05 / 0.49 / 0.42 / 0.35 | 1 of 18 (2.88) |
| 6 | V29D+K36S+W56N+T59R | 0.22 / 0.25 / 0.10 / 0.04 / -0.14 / 0.33 | 2 of 18 (3.33) |
| 7 | Q96A+S103E | 3.56 / 2.56 / 1.84 / 2.13 / 2.45 / 2.49 | 0 of 18 |
| 8 | V29S | n.d. / n.d. / n.d. / n.d. / n.d. / n.d. | 0 of 18 |
| 9 | K24L+S26H+L30Y+W56E+Y97I | n.d. / 1.98 / n.d. / 2.03 / 2.66 / n.d. | 1 of 18 (1.59) |
| 10 | L30P+N35E+K36G+W56Q+Q96T | 1.00 / 0.67 / 0.72 / 0.89 / 0.52 / 0.78 | 2 of 18 (2.74) |
| 11 | L30T+W56E | 0.50 / 0.33 / 0.20 / 0.28 / 0.08 / 0.54 | 2 of 18 (2.32) |
| 12 | S25T+K36D+A57G | 1.50 / 0.79 / 0.85 / 0.64 / 0.98 / 1.05 | 1 of 18 (2.43) |
| 13 | Q27E+S38N | n.d. / n.d. / n.d. / 0.26 / n.d. / n.d. | 0 of 18 |
| 14 | T59V+H98A | 0.95 / 1.52 / 1.11 / 1.86 / 1.45 / 1.55 | 2 of 18 (2.39) |
| 15 | S28G+W56T | -0.03 / 0.36 / 0.41 / 0.14 / 0.48 / 0.11 | 3 of 18 (3.44) |
| 16 | S38E+W56Q | 2.09 / 2.64 / 2.29 / n.d. / 2.43 / 2.73 | 0 of 18 |
| 17 | S28D+K36A | 2.14 / 2.07 / 1.57 / 3.79 / 1.20 / 1.26 | 2 of 18 (2.37) |
| 18 | K24Q+R34H | n.d. / n.d. / n.d. / n.d. / n.d. / n.d. | 0 of 18 |
| 19 | S25P | n.d. / n.d. / n.d. / 2.20 / n.d. / n.d. | 0 of 18 |
| 20 | S26L+Q27T+V29A+R34A+S62V | n.d. / n.d. / n.d. / n.d. / 2.15 / n.d. | 0 of 18 |
| 21 | Q27I+E32N+W56D+H98V | 0.63 / 0.70 / 1.16 / 0.84 / 1.04 / 1.04 | 0 of 18 |
| 22 | S38Q+Q96S | n.d. / n.d. / n.d. / n.d. / n.d. / n.d. | 2 of 18 (2.37) |
| 23 | K36L+A57G | n.d. / 1.18 / n.d. / n.d. / n.d. / n.d. | 0 of 18 |
| 24 | Y31K+K36G+R99W | n.d. / n.d. / n.d. / n.d. / n.d. / n.d. | 0 of 18 |
| 25 | S25I+R34M+K36V | 0.75 / 0.35 / 0.96 / 0.59 / 0.64 / 0.57 | 1 of 18 (2.25) |
| 26 | S25C+S26Y+S33T | n.d. / 1.42 / n.d. / n.d. / n.d. / n.d. | 1 of 18 (2.25) |
| 27 | S25V+L30F+E61F+R99D | 1.64 / 2.02 / 2.42 / 2.57 / 2.09 / 2.77 | 2 of 18 (2.08) |
| 28 | V29E+N35D+K36A+W56R+Q96L+R99M+S103R | 1.41 / 1.72 / 2.76 / 1.84 / 2.00 / 1.71 | 1 of 18 (2.34) |
| 29 | R34D+K36V+E61F | 1.28 / 1.88 / 1.85 / 2.47 / 1.11 / 1.80 | 0 of 18 |
| 30 | S28H+S38H+W56A | 1.56 / 1.38 / 0.55 / 0.57 / 2.42 / 1.23 | 0 of 18 |
| 31 | S33R+L102V | n.d. / n.d. / n.d. / n.d. / n.d. / n.d. | 0 of 18 |
| 32 | Q27T+S28A | n.d. / n.d. / n.d. / n.d. / n.d. / n.d. | 0 of 18 |
| 33 | S25Y+P101L | n.d. / n.d. / n.d. / n.d. / n.d. / n.d. | 0 of 18 |
| 34 | S38Q+V39C+W56N | 1.70 / 2.60 / 1.62 / n.d. / 3.22 / 2.48 | 0 of 18 |
| 35 | K24E+S25N+E32D+R34S | 1.62 / 0.73 / 0.53 / 0.36 / 0.67 / 1.10 | 1 of 18 (3.85) |
| 36 | S25T+Y31W+H98A+R99N | n.d. / n.d. / n.d. / n.d. / 1.63 / n.d. | 1 of 18 (1.87) |
| 37 | K24H+S62L | n.d. / 2.00 / 2.40 / 1.72 / n.d. / 2.78 | 0 of 18 |
| 38 | Y31W+K36G | n.d. / 2.23 / n.d. / n.d. / 2.11 / n.d. | 2 of 18 (1.33) |
| 39 | S25P+S33F+W56Q+Y97H+R99C | n.d. / n.d. / n.d. / n.d. / n.d. / n.d. | 1 of 18 (1.44) |
| 40 | N37W+Q96T | n.d. / n.d. / n.d. / n.d. / n.d. / n.d. | 0 of 18 |
| 41 | Y97C | n.d. / n.d. / n.d. / n.d. / n.d. / n.d. | 0 of 18 |
| 42 | L30R+R34Q+W56E+A57G+H98R | 0.58 / 0.67 / 0.46 / 0.85 / 0.46 / 1.00 | 0 of 18 |
| 43 | S26A+Y31S+W56D+R60L | 1.05 / 0.39 / 0.23 / 0.30 / 1.23 / 1.34 | 1 of 18 (2.54) |
| 44 | K24A+S25M+S38N+R99A | 0.67 / 0.70 / 0.53 / 0.58 / 0.60 / 0.70 | 1 of 18 (2.26) |
| 45 | K36H+W56T | 0.97 / 1.07 / 1.18 / 0.75 / 0.65 / 0.70 | 2 of 18 (2.30) |
| 46 | Q27D+R34T+K36D+L102N | n.d. / n.d. / 2.25 / n.d. / n.d. / n.d. | 1 of 18 (1.81) |
| 47 | R34Q+K36N | 2.99 / 2.01 / 2.22 / 2.35 / 3.16 / 2.44 | 1 of 18 (3.90) |
| 48 | Q27D+L30S | n.d. / n.d. / n.d. / 2.20 / n.d. / n.d. | 0 of 18 |
| 49 | S28Q+N35C+W56S | n.d. / n.d. / n.d. / n.d. / n.d. / n.d. | 0 of 18 |
| 50 | S25L+S28K+Y31S+E32N+L102E | n.d. / n.d. / n.d. / n.d. / n.d. / n.d. | 0 of 18 |

Reference: Li et al. 2023, doi:10.1038/s41467-023-39022-2. File: FLAb, binding data.